Results taken from PubChem BioAssay (Tox21).
The entries are a selection whose mix differs from that of the whole data set. Some results for these compounds are left out of this collection, so the calls shown say nothing about other tests. Results filed as inconclusive are left out. Activity calls are given as the source filed them. Unless noted, calls come from the whole dose curve; as a rule, active = well fitted curve in the direction sought with a large enough effect in the repeat runs; inconclusive = weak or mixed curves; inactive = no such curve, though single readings can be large; an effect the other way counts as inactive or inconclusive.

Columns and labels:
[1] = qHTS assay for small molecules that induce genotoxicity in human embryonic kidney cells expressing luciferase-tagged ATAD5 (AID 651632); details: HEK293T ATAD5-luciferase induction, 16 h; at 83.3 µM (top of the series); note: nearly all actives have a fitted effect of over 15% in size
Procedure, shortened: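 Increased luciferase signal from ATAD5-tagged reporter cells indicates DNA-damage-driven ATAD5 induction. HEK293T cells are treated for 16 hr at 37C before detection with Amplite.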

[2] = qHTS assay for small molecule agonists of the p53 signaling pathway - cell viability (AID 651633; calls by dose curve;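 note: p53RE-bla HCT reporter cells with a stable beta-lactamase p53 reporter; nearly all actives have a fitted effect of over 30% in size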); details: p53RE-bla HCT-116 viability, ATP luminescence, 16 h; at 83.3 µM (top of the series)
Procedure, shortened: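 p53RE-bla cells were treated with compound for 16 hours at 37 C. Cytotoxicity was then measured as CellTiter-Glo luminescence after 30 min at room temperature.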

[3] = qHTS assay for small molecules that induce genotoxicity in human embryonic kidney cells expressing luciferase-tagged ATAD5 - cell viability (AID 651634; calls by dose curve; note: nearly all actives have a fitted effect of over 25% in size); details: HEK293T ATAD5-luc cells viability, CellTiter-Fluor, 15.5 h; at 83.3 µM (top of the series)
Procedure, shortened: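 Cytotoxicity counterscreen in HEK293T cells bearing an ATAD5-luciferase reporter: live-cell protease activity measured by CellTiter-Fluor fluorescence after 15.5 hr compound exposure.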

[4] = qHTS assay for small molecule disruptors of the mitochondrial membrane potential - cell viability (AID 720634; calls by dose curve;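 note: human HepG2 liver cancer cells; nearly all actives have a fitted effect of over 20% in size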); details: HepG2 viability, ATP luminescence (CellTiter-Glo), 1 h; at 83.2 µM (top of the series)
Procedure, shortened: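 After overnight attachment at 37 C, HepG2 cells received compound or DMSO vehicle for 1 hr. Viability is then taken from ATP-driven luminescence following a 30 min room-temperature CellTiter-Glo step.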

[5] = qHTS assay to test for compound auto fluorescence at 590 nm (red) in HepG2 cells (AID 720674); details: HepG2 autofluorescence, red 540/590 nm, 1 h; at 46 µM (top of the series)
Procedure, shortened: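 HepG2 cells, 2,000 per well in MEM with 10% FBS, attached overnight at 37 C, then got 23 nL compound or DMSO. After 1 hr at 37 C, 5% CO2, red fluorescence was read at 540/590 nm against Rose Bengal sodium as reference.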

[6] = qHTS assay to test for compound auto fluorescence at 535 nm (green) in HepG2 cells (AID 720675); details: green autofluorescence 485/535 nm, 1 h; at 46 µM (top of the series)
[7] = qHTS assay to test for compound auto fluorescence at 460 nm (blue) in HEK293 cells (AID 720678); details: blue autofluorescence 405/460 nm; at 46 µM (top of the series)
Procedure, shortened: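 Triamterene serves as the blue fluorophore standard. Compound signal at 405/460 nm is read in HEK293 wells (2,000 cells, 10% dialyzed FBS) after overnight treatment at 37C.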

[8] = qHTS assay to test for compound auto fluorescence at 590 nm (red) in HEK293 cells (AID 720679); details: red autofluorescence 540/590 nm; at 46 µM (top of the series)
Procedure, shortened: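 We plated HEK293 cells in 10% dialyzed FBS medium, let them adhere for 4-5 hr, then added 23 nL compound. Overnight at 37C and 5% CO2 preceded fluorescence measurement at 540/590nm.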

[9] = qHTS assay to test for compound auto fluorescence at 535 nm (green) in HEK293 cells (AID 720680); details: green autofluorescence 485/535 nm; at 46 µM (top of the series)
[10] = qHTS assay to test for compound auto fluorescence at 460 nm (blue) in HEK293 cell free culture (AID 720681); details: cell-free medium, autofluorescence 405/460 nm (blue); at 46 µM (top of the series)
Procedure, shortened: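 Compounds were added to cell-free DMEM with 10% FBS and fluorescence read directly. The blue channel used 405 nm excitation and 460 nm emission, with triamterene as the reference fluorophore.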

[11] = qHTS assay to test for compound auto fluorescence at 535 nm (green) in HEK293 cell free culture (AID 720682); details: cell-free medium, green autofluorescence 485/535 nm, active compounds read high; at 46 µM (top of the series)
Procedure, shortened: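 Green-channel intensity (Ex/Em 485/535 nm) was recorded from compound-treated wells containing only DMEM with 10% FBS. Fluorescein provided the equivalency standard.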

[12] = qHTS assay to test for compound auto fluorescence at 590 nm (red) in HEK293 cell free culture (AID 720683); details: cell-free medium autofluorescence, Ex540/Em590 red; at 46 µM (top of the series)
Procedure, shortened: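 Cell-free wells of DMEM with 10% FBS received compound, and intrinsic fluorescence was read at excitation/emission 540/590 nm. Values expressed as equivalence to Rose Bengal sodium.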

[13] = qHTS assay to test for compound auto fluorescence at 590 nm (red) in HepG2 cell free culture (AID 720684); details: cell-free medium autofluorescence, red 540/590 nm; at 46 µM (top of the series)
Procedure, shortened: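 Compounds are added to culture medium (MEM, 10% FBS) lacking cells, then fluorescence is read at excitation 540 nm, emission 590 nm, with Rose Bengal sodium as the equivalency standard.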

[14] = qHTS assay to test for compound auto fluorescence at 460 nm (blue) in HepG2 cell free culture (AID 720685); details: Cell-free culture medium, blue autofluorescence 405/460 nm; at 46 µM (top of the series)
Procedure, shortened: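 Compound (23 nL) or DMSO pinned into cell-free MEM with 10% FBS; blue fluorescence read at 405/460 nm excitation/emission, expressed as auto-fluorescence equivalency to triamterene.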

[15] = qHTS assay to test for compound auto fluorescence at 535 nm (green) in HepG2 cell free culture (AID 720686); details: Cell-free medium, green autofluorescence 485/535 nm; at 46 µM (top of the series)
[16] = qHTS assay to test for compound auto fluorescence at 460 nm (blue) in HepG2 cells (AID 720687); details: autofluorescence 405/460 nm, 1 h; at 46 µM (top of the series)
Procedure, shortened: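 HepG2 cells in MEM with 10% FBS, attached overnight at 37 C, were exposed to compound or DMSO for 1 hr at 37 C, 5% CO2. Blue fluorescence was read at 405/460 nm, with triamterene as reference fluorophore.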

[17] = qHTS assay to identify small molecule antagonists of the glucocorticoid receptor (GR) signaling pathway - cell viability counter screen (AID 720693); details: GR-bla HeLa viability, CellTiter-Glo luminescence, 18 h, with 5 nM dexamethasone present; at 58.5 µM (top of the series); note: nearly all actives have a fitted effect of over 55% in size
% is set by controls: 0 for no effect and ±100 for the full control effect.

CN1CCCC(OC(=O)C(O)(c2ccccc2)c2ccccc2)C1 (configuration not stated)
inactive: activation [1] 1.39% | activity change, negative = cytotoxicity [2] 9.6% | activity, negative = cytotoxicity [3] 16% | activity change, negative = cytotoxicity [4] 4.12% | fluorescence, relative to Rose Bengal [5] 0.15% | fluorescence, % of fluorescein control [6] -0.105% | fluorescence, % of triamterene [7] 0.0382% | fluorescence, % of fluorescent control [8] -0.144% | fluorescence, % of fluorescein [9] 0.156% | fluorescence, % of fluorescent control [10] 0.0478% | activity change [11] -0.0804% | fluorescence, % of fluorescent control [12] -0.46% | fluorescence, % of Rose Bengal [13] -0.0681% | fluorescence, % of fluorescent control [14] -0.162% | fluorescence, % of fluorescein control [15] 0.0661% | fluorescence, % of fluorescent control [16] 0.0231% | viability change, negative = cytotoxic [17] 6.6%
